## Binding of CDR-mutated scFvs to a peptide of the spike HR2 region

Binding partner: SARS-CoV-2 spike HR2 peptide, sequence PDVDLGDISGINAS.

Parent: Ab-14, a human scFv built as VH, the linker GGGGSGGGGSGGGGS, VL. Only the CDRs of the light chain vary.
VH: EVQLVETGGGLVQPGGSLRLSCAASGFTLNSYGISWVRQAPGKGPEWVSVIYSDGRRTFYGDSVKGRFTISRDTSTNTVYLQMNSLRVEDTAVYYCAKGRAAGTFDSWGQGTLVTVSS
VL: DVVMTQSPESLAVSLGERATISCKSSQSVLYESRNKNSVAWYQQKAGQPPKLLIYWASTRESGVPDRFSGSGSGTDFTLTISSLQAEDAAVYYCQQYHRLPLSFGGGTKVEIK

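The parent was found by panning a naive human phage display library on the peptide. In library AAYL50, one, two or three CDR residues were substituted; doubles and triples were drawn at random. AlphaSeq pools MATa yeast showing the antibodies with MATalpha yeast showing the peptide. After mating in shaken culture at 30 °C for 16 h, diploids were selected and their barcode pairs sequenced. The ratio of observed to expected reads was calibrated, replicate by replicate, on BCL2-family standards whose Kd was known from biolayer interferometry. Each pool was mated in three replicate cultures.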

Each variant is given by its three light chain CDRs, as the data file delimits them; those of the parent are KSSQSVLYESRNKNSVA, WASTRES, QQYHRLPLS. Scale: log10 of Kd in nM, estimated from mating counts; low values are strong binders. The mean shown is taken over the replicates in which the pair was detected. "nd" marks a missing value. The strain was present, yet no cells mated with the target were sequenced in that replicate, which points to weak or no binding. As a blank, each scFv also met three strains without target: over library AAYL50, 18% of these pairings were detected, typically at 4.19 and seldom below 2.99. Also given: how often the same scFv was detected with the empty control strains, with their mean in brackets. For reference, the parent read 0.65 as the reference entry and 1.68 as a member of this library.

{"CDR-L1": "KCSQSVLPESRNKNSVA", "CDR-L2": "WASTRES", "CDR-L3": "QQYHRLPLS", "log10 Kd (nM) by replicate": "0.25 0.57 0.37", "mean, log10 nM": "0.40", "empty controls": "1/9 (3.95)"}
{"CDR-L1": "EQSASVLYESRNKNSVA", "CDR-L2": "WASTRES", "CDR-L3": "QQYHRLPLS", "log10 Kd (nM) by replicate": "nd 4.79 nd", "mean, log10 nM": "4.79", "empty controls": "0/9"}
{"CDR-L1": "ISSCSVLYESRNKNSVS", "CDR-L2": "WASTRES", "CDR-L3": "QQYHRLPLS", "log10 Kd (nM) by replicate": "nd nd nd", "mean, log10 nM": "nd", "empty controls": "4/9 (4.25)"}
{"CDR-L1": "KSSQSVTYESRNKNSVA", "CDR-L2": "WASTRES", "CDR-L3": "QSYGRLPLS", "log10 Kd (nM) by replicate": "1.94 2.16 1.94", "mean, log10 nM": "2.02", "empty controls": "1/9 (4.04)"}
{"CDR-L1": "KSSQSVLYESRNKNSVA", "CDR-L2": "WASTRES", "CDR-L3": "QQYHRPPLS", "log10 Kd (nM) by replicate": "2.04 1.75 2.15", "mean, log10 nM": "1.98", "empty controls": "1/9 (4.53)"}
{"CDR-L1": "KSSQSVKYERRNKNSVS", "CDR-L2": "WASTRES", "CDR-L3": "QQYHRLPLS", "log10 Kd (nM) by replicate": "nd 4.48 nd", "mean, log10 nM": "4.48", "empty controls": "1/9 (3.81)"}
{"CDR-L1": "KEIQSVLYESRNKNSVA", "CDR-L2": "WASTIES", "CDR-L3": "QQYHRLPLS", "log10 Kd (nM) by replicate": "3.93 4.18 4.62", "mean, log10 nM": "4.24", "empty controls": "7/9 (4.95)"}
{"CDR-L1": "KSSQSVLGEHRNKNSVA", "CDR-L2": "WASTRES", "CDR-L3": "QQYHRLPHS", "log10 Kd (nM) by replicate": "nd nd nd", "mean, log10 nM": "nd", "empty controls": "1/9 (3.43)"}
{"CDR-L1": "KSSQSVLYESRYKNSVA", "CDR-L2": "WASTRES", "CDR-L3": "QQYHYLPSS", "log10 Kd (nM) by replicate": "nd nd nd", "mean, log10 nM": "nd", "empty controls": "0/9"}
{"CDR-L1": "KSSQSVLGESRNKNSVF", "CDR-L2": "QASTRES", "CDR-L3": "QQYHRLPLS", "log10 Kd (nM) by replicate": "5.83 nd nd", "mean, log10 nM": "5.83", "empty controls": "3/9 (4.25)"}
{"CDR-L1": "KSSQSHLYESRNKVSVA", "CDR-L2": "WASWRES", "CDR-L3": "QQYHRLPLS", "log10 Kd (nM) by replicate": "3.44 nd nd", "mean, log10 nM": "3.44", "empty controls": "3/9 (4.78)"}
{"CDR-L1": "KSSQSVLYEFRPKYSVA", "CDR-L2": "WASTRES", "CDR-L3": "QQYHRLPLS", "log10 Kd (nM) by replicate": "3.22 2.33 3.11", "mean, log10 nM": "2.89", "empty controls": "0/9"}
{"CDR-L1": "KSSSSVLYESRNKNSVA", "CDR-L2": "WASTRES", "CDR-L3": "QQQHRLPLS", "log10 Kd (nM) by replicate": "1.73 1.74 1.82", "mean, log10 nM": "1.77", "empty controls": "4/9 (4.55)"}
{"CDR-L1": "KSSQSGLYESANKNSVA", "CDR-L2": "WASTRES", "CDR-L3": "QQYHYLPLS", "log10 Kd (nM) by replicate": "1.59 1.56 1.96", "mean, log10 nM": "1.70", "empty controls": "0/9"}
{"CDR-L1": "KSSASVTYESRNKNSVA", "CDR-L2": "WARTRES", "CDR-L3": "QQYHRLPLS", "log10 Kd (nM) by replicate": "2.21 2.33 2.38", "mean, log10 nM": "2.30", "empty controls": "6/9 (4.62)"}
{"CDR-L1": "KSSQSVLLESRFKNSVA", "CDR-L2": "WASTRES", "CDR-L3": "QQYHRLPLQ", "log10 Kd (nM) by replicate": "1.74 1.68 2.34", "mean, log10 nM": "1.92", "empty controls": "0/9"}
{"CDR-L1": "KSYFSVLYESRNANSVA", "CDR-L2": "WASTRES", "CDR-L3": "QQYHRLPLS", "log10 Kd (nM) by replicate": "0.94 1.37 1.42", "mean, log10 nM": "1.25", "empty controls": "0/9"}
{"CDR-L1": "KSSQSVLYESRNKNSVA", "CDR-L2": "WSSTRES", "CDR-L3": "QQYHRLPLS", "log10 Kd (nM) by replicate": "1.20 1.72 1.18", "mean, log10 nM": "1.37", "empty controls": "1/9 (2.88)"}
{"CDR-L1": "KSSQSVLYESNNKNSVA", "CDR-L2": "WASTRES", "CDR-L3": "PQYIRLPLS", "log10 Kd (nM) by replicate": "nd nd nd", "mean, log10 nM": "nd", "empty controls": "0/9"}
{"CDR-L1": "KSSQSVLYESPNKNSVA", "CDR-L2": "WASTRES", "CDR-L3": "QQYHRLPLS", "log10 Kd (nM) by replicate": "0.37 0.60 0.60", "mean, log10 nM": "0.52", "empty controls": "0/9"}
{"CDR-L1": "KHSQSVLYESRNKNSVD", "CDR-L2": "WASTRES", "CDR-L3": "PQYHRLPLS", "log10 Kd (nM) by replicate": "nd nd nd", "mean, log10 nM": "nd", "empty controls": "0/9"}
{"CDR-L1": "KSRQSVLYESRNKNSVA", "CDR-L2": "LASTRES", "CDR-L3": "QQYHRLPLY", "log10 Kd (nM) by replicate": "1.25 1.44 1.52", "mean, log10 nM": "1.40", "empty controls": "0/9"}
{"CDR-L1": "KSPQSVLYEDRNKNSVA", "CDR-L2": "WASTRES", "CDR-L3": "QQYHRQPLS", "log10 Kd (nM) by replicate": "nd 4.35 nd", "mean, log10 nM": "4.35", "empty controls": "2/9 (3.91)"}
{"CDR-L1": "KSSQSVLHESRNKNSVA", "CDR-L2": "DASTRQS", "CDR-L3": "QQYHRLPLS", "log10 Kd (nM) by replicate": "0.76 0.92 0.83", "mean, log10 nM": "0.84", "empty controls": "1/9 (5.74)"}
{"CDR-L1": "KSSYSVLYESRNMNSVA", "CDR-L2": "WASTFES", "CDR-L3": "QQYHRLPLS", "log10 Kd (nM) by replicate": "nd nd nd", "mean, log10 nM": "nd", "empty controls": "1/9 (3.48)"}
{"CDR-L1": "KSMQSVLYESRNKNSVA", "CDR-L2": "WAKTRES", "CDR-L3": "QQYHRLPLS", "log10 Kd (nM) by replicate": "3.01 1.64 2.57", "mean, log10 nM": "2.41", "empty controls": "0/9"}

For reference, 4 entries of the list once more:

{"CDR-L1": "KSPQSVLYEDRNKNSVA", "CDR-L2": "WASTRES", "CDR-L3": "QQYHRQPLS", "log10 Kd (nM) by replicate": "nd 4.35 nd", "mean, log10 nM": "4.35", "empty controls": "2/9 (3.91)"}
{"CDR-L1": "KSRQSVLYESRNKNSVA", "CDR-L2": "LASTRES", "CDR-L3": "QQYHRLPLY", "log10 Kd (nM) by replicate": "1.25 1.44 1.52", "mean, log10 nM": "1.40", "empty controls": "0/9"}
{"CDR-L1": "KSSQSVLLESRFKNSVA", "CDR-L2": "WASTRES", "CDR-L3": "QQYHRLPLQ", "log10 Kd (nM) by replicate": "1.74 1.68 2.34", "mean, log10 nM": "1.92", "empty controls": "0/9"}
{"CDR-L1": "KSSQSVLYESRYKNSVA", "CDR-L2": "WASTRES", "CDR-L3": "QQYHYLPSS", "log10 Kd (nM) by replicate": "nd nd nd", "mean, log10 nM": "nd", "empty controls": "0/9"}

Source: Engelhart et al. 2022 (doi:10.1038/s41597-022-01779-4), MIT Lincoln Laboratory and A-Alpha Bio; data file from the FLAb repository.